Test results: patent US10092570B2 (Incyte Corporation, priority 2011, dated 2018)
Structures can show the parent of a compound that is named as a salt.

Sequences of proteins named here, by UniProt entry; tags and fusion partners are left off. A change or cut given only in a name is not applied to a line headed by its entry.
UniProt O00329: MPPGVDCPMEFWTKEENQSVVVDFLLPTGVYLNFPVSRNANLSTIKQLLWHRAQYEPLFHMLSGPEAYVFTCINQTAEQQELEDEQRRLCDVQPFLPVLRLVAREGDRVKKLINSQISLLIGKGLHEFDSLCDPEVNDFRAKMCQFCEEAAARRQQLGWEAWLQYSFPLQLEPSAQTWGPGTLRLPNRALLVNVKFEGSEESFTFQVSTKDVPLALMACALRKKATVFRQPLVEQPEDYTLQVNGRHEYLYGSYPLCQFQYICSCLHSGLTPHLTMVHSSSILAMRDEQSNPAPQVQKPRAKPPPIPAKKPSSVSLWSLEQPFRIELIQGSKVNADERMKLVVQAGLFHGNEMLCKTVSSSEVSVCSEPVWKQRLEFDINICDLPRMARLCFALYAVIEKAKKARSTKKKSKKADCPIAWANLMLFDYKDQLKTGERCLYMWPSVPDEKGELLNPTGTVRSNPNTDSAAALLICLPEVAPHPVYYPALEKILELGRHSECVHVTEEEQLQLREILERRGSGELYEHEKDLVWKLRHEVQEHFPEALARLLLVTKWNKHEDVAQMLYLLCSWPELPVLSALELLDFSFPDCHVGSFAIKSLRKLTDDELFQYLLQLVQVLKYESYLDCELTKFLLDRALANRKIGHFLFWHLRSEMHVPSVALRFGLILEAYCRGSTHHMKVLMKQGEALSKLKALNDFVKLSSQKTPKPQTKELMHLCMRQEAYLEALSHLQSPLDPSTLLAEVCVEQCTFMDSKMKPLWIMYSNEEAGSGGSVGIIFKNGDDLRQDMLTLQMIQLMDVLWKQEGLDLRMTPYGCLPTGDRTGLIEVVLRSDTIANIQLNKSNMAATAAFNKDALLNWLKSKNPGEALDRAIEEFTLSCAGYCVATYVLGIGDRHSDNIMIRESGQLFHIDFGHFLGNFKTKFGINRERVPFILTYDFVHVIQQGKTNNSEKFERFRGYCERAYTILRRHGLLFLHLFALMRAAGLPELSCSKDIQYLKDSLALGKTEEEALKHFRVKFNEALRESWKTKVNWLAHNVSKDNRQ

These compounds were tested against PI3Kδ (p110δ/p85α) (Homo sapiens (Human), UniProt O00329) (assay: Example A3: PI3Kδ scintillation proximity assay). Settings: 20 μM ATP, 4 nM PI3Kδ, read-out: PI3Kδ SPA IC50.
Format: biochemical
Experimental: [γ-^33P]ATP (10 mCi/mL) was purchased from Perkin-Elmer (Waltham, Mass.). […] PI3Kδ (p110δ/p85α) was purchased from Millipore (Bedford, Mass.). ATP, MgCl2, DTT, EDTA, MOPS and CHAPS were purchased from Sigma-Aldrich (St. Louis, Mo.). Wheat Germ Agglutinin (WGA) YSi SPA Scintillation Beads was purchased from GE healthcare life sciences (Piscataway, N.J.).
The kinase reaction was conducted in polystyrene 384-well matrix white plate from Thermo Fisher Scientific in a final volume of 25 μL. Inhibitors were first diluted serially in DMSO and added to the plate wells before the addition of other reaction components. The final concentration of DMSO in the assay was 0.5%. The PI3K assays were carried out at room temperature in 20 mM MOPS, pH 6.7, 10 mM MgCl2, 5 mM DTT and CHAPS 0.03%. Reactions were initiated by the addition of ATP, the final reaction mixture consisted of 20 μM PIP2, 20 μM ATP, 0.2 μCi [γ-^33P] ATP, 4 nM PI3Kδ. […] 25 mM EDTA, 400 μM ATP. The final concentration of SPA beads was 1.0 mg/mL. After the plate sealing, plates were shaken overnight at room temperature and centrifuged at 1800 rpm for 10 minutes, the radioactivity of the product was determined by scintillation counting on Topcount (Perkin-Elmer). IC50 determination was performed by fitting the curve of percent control activity versus the log of the inhibitor concentration using the GraphPad Prism 3.0 software.

IC50, < 10 nM:
COc1c(C(C)n2nc(C(F)F)c3c(N)ncnc32)cc(Cl)c(C)c1C1CN(C(C)C)C1 (racemic) [Example 127, 1-{1-[5-Chloro-3-(1-isopropylazetidin-3-yl)-2-methoxy-4-methylphenyl]ethyl}-3-(difluoromethyl)-1H-pyrazolo[3,4-d]pyrimidin-4-amine]
COc1c(C(C)n2nc(C)c3c(N)ncnc32)cc(C)c(C#N)c1-c1cncc(S(C)(=O)=O)c1 (racemic) [Example 317, 4-[1-(4-amino-3-methyl-1H-pyrazolo[3,4-d]pyrimidin-1-yl)ethyl]-3-methoxy-6-methyl-2-[5-(methylsulfonyl)pyridin-3-yl]benzonitrile]
COc1c(C(C)n2nc(C)c3c(N)ncnc32)cc(C)c(C#N)c1-c1ccc(C(=O)N(C)C)nc1 (single isomer, unassigned) [Example 344, 5-{3-[1-(4-amino-3-methyl-1H-pyrazolo[3,4-d]pyrimidin-1-yl)ethyl]-6-cyano-2-methoxy-5-methylphenyl}-N,N-dimethylpyridine-2-carboxamide]
COc1c(C(C)n2nc(C)c3c(N)ncnc32)cc(Cl)c(C)c1C1CC(O)C1 (stereo not shown) [Example 166, 3-{3-[1-(4-Amino-3-methyl-1H-pyrazolo[3,4-d]pyrimidin-1-yl)ethyl]-5-chloro-2-methoxy-6-methylphenyl}cyclobutanol trifluoroacetate]
